What was measured:
[1] = system: hepatic encephalopathy model animal; assay: hepatic encephalopathy model rat (partial hepatectomy + ammonium acetate): coma period and plasma ammonia (Test Examples 1-3); type: in vivo
Procedure: A test drug was prepared by dissolving rat serum albumin (RSA, manufactured by Sigma Corp.) in an amino acid solution (components are disclosed in Table 3) to form a 0.1 w/v % or 1.0 w/v % solution, adding 1.0 N hydrochloric acid thereto to adjust the pH to 6.6 to 7.4 according to Preparation Example 3, filling the solution into a 500 ml infusion bottle and heating at 60° C. for 10 hours after sealing the bottle with a rubber plug. In comparison, physiological saline or the amino acid solution (pH 6.6 to 7.4), respectively, was used in the same way.
Rat partial hepatectomy was carried out by performing a laparotomy of a male SD rat (body weight of 200 to 230 g) under etherization, removing a lateral left lobe, a medial left lobe and a medial right lobe (67%) and closing the abdomen (Archs. Pathol., 1985; 12: 186-202).
A hepatic encephalopathy model animal was created by administering 2 M ammonium acetate solution at a rate of 3 ml/kg into the rat abdomen after 48 hours from the partial hepatectomy (“Kiso to Rinsho”, 1987; 21: 2509-2527).
The test drug was injected from the rat tail vein (10 ml/kg) 2 minutes before administering the ammonium solution. Subsequently, the coma period (minutes) was measured, blood was collected from the rat tail vein 30 minutes after administration of the ammonium solution, and the ammonia concentration in the blood plasma was determined by using an ammonia measuring reagent kit (brand name: Determiner NH3, manufactured by Kyowa Medics Corporation).
As well, the creation of a hepatic encephalopathy model animal was confirmed by a coma of the rat resulting from administrating an ammonium acetate solution thereto.
A test drug was prepared by dissolving human serum albumin (HSA, manufactured by Sigma Corp.) in the amino acid solution (components are disclosed in Table 3) in the same manner as in Preparation Example 3 to form a desired concentration of the solution (0.001, 0.01, 0.1 or 1.0 w/v %). 6 to 14 male SD rats (body weight 200 to 230 g) as test animals were used per one group, and creation of a hepatic encephalopathy model animal and a test method were carried out in the same manner as Test Example 1. The test drug was injected in an amount of 10 ml/kg from the tail vein.
A test drug was prepared by dissolving bovine serum albumin (BSA, manufactured by Sigma Corp.) in the amino acid solution (components bare disclosed in Table 3) in the same manner as in Preparation Example 3 to form a desired concentration of the solution (0.1 w/v % or 1.0 w/v %). Creation of a hepatic encephalopathy model animal and a test method were carried out in the same manner as Test Example 1.

[2] = system: Ammonia encephalopathy model animals; assay: ammonia encephalopathy model rat: free amino acid concentration in serum and Fischer ratio (Test Example 4); type: in vivo
Procedure: A test drug was prepared by dissolving human serum albumin in the amino acid solution (components are disclosed in Table 3) in the same manner as in Preparation Example 3 to form a desired concentration (0.01, 0.1, 1.0 w/v %) of the solution. 5 male SD rats (body weight 200 to 230 g) as test animals were used per one group. Ammonia encephalopathy model animals were created by partially removing the liver and then administering 2 M ammonium acetate solution. The test drug was injected to an abdominal aorta in an amount of 10 ml/kg 2 minutes before administration of the ammonium solution. After 1.5 hours from the administration of the ammonium solution, the blood was collected from the abdominal aorta under etherization. An equivalent volume of 5 w/v % trichloroacetic acid solution was promptly added into the blood to centrifuge and, thereafter, the supernatant was measured using an amino acid analyzer (D-7000, manufactured by Hitachi) to determine the free amino acid concentration in the serum. The Fischer ratio was determined from the amino acid concentration in the serum.

[3] = Test Example 2, compared with control group

“1.0% HSA: human serum albumin (HSA, manufactured by Sigma Corp.), 1.0% final concentration, given alone” was tested. Which “concentration of ammonia in the blood” value ([1]; Test Example 2 (HSA), 10 ml/kg tail vein, mean ± standard error) did it give?
Its value is 116 ± 12 µmol/dL.

And the coma period ([1]; Test Example 2 (HSA), male SD rat, 10 ml/kg tail vein, mean ± standard error)?
Its coma period is 33 ± 10 min.

What about the “effect on ammonia concentration in the blood” value [1, 3] of the same substance?
The value was “no effect”.

What about the “effect on coma period” value [1, 3] of the same substance?
The value was “no effect”.

And the “improvement of Fischer ratio” value [2]?
Its value is “not improved”.

What about the “concentration of amino acid in the blood” value ([2]; 10 ml/kg abdominal aorta 2 min before ammonium solution, blood 1.5 hours after ammonium solution, mean ± standard error) of the same substance?
The value was 8.2 ± 0.8 µmol/dL.

What about the Fischer ratio ([2]; determined from amino acid concentration in the serum, 1.5 hours after ammonium solution, mean ± standard error) of the same substance?
Its Fischer ratio is 0.97 ± 0.27.
